UUG fidelity: yeast start codon fidelity modulation | S. cerevisiae UUG-firefly luciferase reporter, luminescence/redox ratio | activity score, % at 18.7 µM | 0.13% of 350,000 active | AID 602363;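 active means replicate mean at a twofold rise or more, about +100% in these data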;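 further: firefly luciferase made from a UUG start codon reports start codon fidelity; reporter light over untreated wells divided by growth signal over untreated wells; some hits fall short of that in this replicate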
miR-122 sensor: miR-122 inhibition in Huh7 cells | AID 602342 | Huh7 miR-122 Renilla luciferase sensor, 48 h; neutral wells = 0, positive control = 100 | activation (reporter increase), % at 12.5 µM | 340,000 compounds, 0.3% hits;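 active means mean replicate activation score at least 90 and every replicate individually at or above 90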;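 further: higher luciferase means less miR-122 activity so hits act as miR-122 inhibitors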
C2C12 statin: protects C2C12 myotubes from simvastatin toxicity | ATP luminescence, 48 h; scaled: DMSO 0, geranylgeraniol control 100 | rescue of ATP level, % at 7.49 µM | 330,000 compounds, 0.78% hits | AID 602340;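 active means mean ATP rescue above about 67%, or every replicate alone reaching that limit, limit read from the data, passing the limit was not always enough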;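 further: myotubes were challenged with 10 µM simvastatin during compound exposure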
Cneo AK release: Cryptococcus neoformans lysis via adenylate kinase release; C. neoformans lysis, adenylate kinase release luminescence, 4 h; normalised: neutral wells 0, clomiphene wells 100; lysis activity, % at 15 µM; 360,000 compounds, 0.2% hits;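 active means mean lysis activity across replicates of at least 80%, whatever share of replicates individually reach that level; inactive means mean lysis activity below 80%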
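Signal: Adenylate kinase release luminescence | Assay system: Log-phase Cryptococcus neoformans yeast cells | Input: Cells at 5 × 10^6 per mL | Buffer or medium: Fresh YPD growth medium | Compound: Single dose | Schedule: Static 4 h at 37 °C with compound, 1 h detection | Controls: Clomiphene | Read-out: Luminescence rise reflecting yeast cell lysis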
Each line names hits and unclear results; the compound was inactive in the other large screens. The list is not random: actives were taken first. Their share in the collection is about 1.2%.

COc1ccccc1CC(=O)Nc1cc(C)on1	none
Cc1cccc(OCC(=O)Nc2cc(C)on2)c1	C2C12 statin 122
COc1ccc(CC(=O)Nc2cc(C)on2)cc1OC	C2C12 statin 111
O=C(C[C@@H]1C=C[C@@H](NC(=O)Nc2cc(F)ccc2F)[C@H](CO)O1)NCc1ccccn1	none (no result: miR-122 sensor)
COc1ccc(NS(=O)(=O)c2cc(C)ccc2NC(=O)c2cc(C)oc2C)cc1	miR-122 sensor 404
C=CCOc1ccc(CNn2nnnc2N)cc1	none (no result: C2C12 statin)
Nc1nnnn1NCc1cccc(OCc2ccccc2)c1	C2C12 statin 104
C[C@H]1CN([C@@H](C)CO)C(=O)c2cc(NC(=O)C3CC3)ccc2O[C@H]1CN(C)Cc1ccccc1	none
Cc1cccc(-c2nnc3n2N=C(c2ccccc2Br)CS3)c1	C2C12 statin 103
CS(=O)(=O)Nc1ccc2c(c1)[C@H]1C[C@@H](CC(=O)NCc3ccccc3F)O[C@@H](CO)[C@H]1O2	none
CC(=O)Nc1nonc1-n1nnc(C(=O)NCc2ccccc2)c1C	miR-122 sensor 266
CC(=O)Nc1c(C(=O)NCc2ccccc2)nnn1Cc1ccccc1	none
Cc1ccc(N(CC(=O)NCc2cccs2)S(=O)(=O)c2cccs2)cc1	miR-122 sensor 182
O=C(COC(=O)C1CCN(S(=O)(=O)c2cccc3cccnc23)CC1)c1ccc(F)cc1	C2C12 statin 96
Cc1[nH]c2ccccc2c1C(=O)COC(=O)C1CC(=O)N(Cc2ccccc2)C1 (centres undefined)	none
CCOC(=O)c1c(C)[nH]c(C(=O)COC(=O)C2CC(=O)N(Cc3ccccc3)C2)c1C (centres undefined)	C2C12 statin 92
O=C(NCC[C@H]1CC[C@H](NC(=O)C2CCC2)[C@H](CO)O1)Nc1ccc(Cl)cc1	none (no result: miR-122 sensor)
Cc1noc(C)c1S(=O)(=O)N(C)C[C@H]1OCCCC[C@@H](C)Oc2ccc(NS(=O)(=O)c3ccccc3)cc2C(=O)N([C@H](C)CO)C[C@@H]1C	none (no result: C2C12 statin)
CO[C@H]1CN(C)C(=O)c2cc(NC(=O)C3CC3)ccc2OC[C@H](C)N(C(=O)NC(C)C)C[C@@H]1C	none (no result: UUG fidelity, miR-122 sensor)
COc1cccc(C(=O)Nc2ccccc2C(=O)N2CCCC2)c1	C2C12 statin 100
COc1cccc(C(=O)Nc2cc([N+](=O)[O-])ccc2N2CCN(C)CC2)c1	miR-122 sensor 292
CCOc1cccc2cc(-c3nnc(NCc4ccco4)s3)c(=O)oc12	none (no result: C2C12 statin)
COc1ccc2oc(=O)c(-c3nnc(NCc4ccco4)s3)cc2c1	C2C12 statin 103
O=C(c1cccc(F)c1)N1CCCCN2[C@H](CO)[C@@H](c3ccc(-c4ccc(F)cc4)cc3)[C@@H]2C1	none (no result: C2C12 statin)
O=C(C[C@@H]1CC[C@H]2[C@@H](COC[C@H](O)CN2Cc2cccc(C(F)(F)F)c2)O1)NCc1ccccc1	Cneo AK release 100 (no result: UUG fidelity)
O=C(C[C@@H]1CC[C@@H]2[C@H](COC[C@@H](O)CN2Cc2cccc(C(F)(F)F)c2)O1)NCc1ccc(Cl)cc1	none (no result: UUG fidelity)
O=C(C[C@@H]1CC[C@@H]2[C@H](COC[C@H](O)CN2Cc2cccc(C(F)(F)F)c2)O1)NCc1ccc(Cl)cc1	Cneo AK release 83 (no result: UUG fidelity)
O=C(C[C@@H]1CC[C@@H]2[C@H](COC[C@@H](O)CN2Cc2cccc(C(F)(F)F)c2)O1)NCc1ccccc1	none (no result: UUG fidelity)
O=C(C[C@H]1CC[C@@H]2[C@H](COC[C@@H](O)CN2Cc2cccc(C(F)(F)F)c2)O1)NCc1ccc(Cl)cc1	Cneo AK release 110 (no result: UUG fidelity)
O=C(C[C@H]1CC[C@@H]2[C@H](COC[C@H](O)CN2CC2CCOCC2)O1)NCc1ccc(Cl)cc1	Cneo AK release 86 (no result: UUG fidelity)
Cc1noc(C)c1NC(=O)N(C)C[C@H]1Oc2c(NS(=O)(=O)c3ccccc3)cccc2C(=O)N([C@@H](C)CO)C[C@@H]1C	none
O=C(C[C@@H]1CC[C@@H]2[C@H](COC[C@@H](O)CN2Cc2ccc(Oc3ccccc3)cc2)O1)Nc1nccs1	none (no result: UUG fidelity)
O=C(C[C@@H]1CC[C@H]2[C@@H](COC[C@@H](O)CN2Cc2ccc(Oc3ccccc3)cc2)O1)Nc1nccs1	C2C12 statin 100 (no result: UUG fidelity)
O=C(C1=C[C@@H](c2ccc(Br)cc2)C[C@@H](OCCCCO)O1)N1CCCCCCC1	none (no result: UUG fidelity, miR-122 sensor, C2C12 statin)
CC(C)Sc1nc(SCC(=O)NCc2ccco2)c2c3c(sc2n1)COC(C)(C)C3	C2C12 statin 129
CCCN1C[C@@H](C)[C@H](OC)CN(C)C(=O)c2cc(NS(=O)(=O)CC)ccc2OC[C@@H]1C	none
C[C@H](O)C#Cc1cnc2c(c1)C(=O)N([C@@H](C)CO)C[C@@H](C)[C@H](CN(C)C(=O)c1ccncc1)O2	none
CC(=O)c1cc(C#N)c(Oc2ccc(Cl)cc2Cl)nc1C	C2C12 statin 167
CC(=O)c1cc(C#N)c(Oc2ccccc2)nc1C	C2C12 statin 105
O=c1c2ccccc2sn1-c1ccccc1	UUG fidelity 195
O=c1c2ccccc2sn1-c1cccc(Cl)c1	none
C[C@@H]1CN([C@H](C)CO)C(=O)c2cc(NC(=O)Nc3ccc(F)cc3)ccc2O[C@@H]1CN(C)Cc1ccc(Oc2ccccc2)cc1	none (no result: C2C12 statin)
CCOc1ccc(OCCOCCOc2c(Cl)cccc2Cl)cc1	C2C12 statin 133
O=C(c1cn(Cc2ccccc2)nc1-c1ccc(Cl)cc1)N1CCN(c2ccccn2)CC1	miR-122 sensor 120
COc1ccc(-c2nn(Cc3ccccc3)cc2C(=O)N2CCN(c3ncccn3)CC2)cc1	none
Cc1ccc(-c2nn(Cc3ccccc3)cc2C(=O)N2CCN(c3ccccn3)CC2)cc1	miR-122 sensor 107
O=C(c1cn(-c2ccccc2)nc1-c1ccccc1)N1CCN(c2ccccn2)CC1	none (no result: miR-122 sensor)
Cc1noc(C)c1NC(=O)NCC[C@H]1CC[C@H](NC(=O)Nc2cccc(F)c2)[C@@H](CO)O1	none (no result: miR-122 sensor)
COc1ccc(C(=O)/C(=C/c2cccs2)c2nc3ccccc3o2)cc1	C2C12 statin 94
Cc1noc(C)c1S(=O)(=O)Nc1ccc2c(c1)C(=O)N([C@@H](C)CO)C[C@@H](C)[C@H](CN(C)C(=O)C1CCCCC1)OCCCC[C@@H](C)O2	none (no result: C2C12 statin)
Cc1noc(C)c1S(=O)(=O)Nc1ccc2c(c1)CC(=O)N([C@H](C)CO)C[C@@H](C)[C@@H](CN(C)Cc1ccc(-c3ccccc3)cc1)O2	C2C12 statin 98 (no result: UUG fidelity, Cneo AK release)
Cc1noc(C)c1S(=O)(=O)Nc1ccc2c(c1)C(=O)N([C@@H](C)CO)C[C@H](C)[C@H](CN(C)Cc1ccncc1)O2	none (no result: C2C12 statin)
Cc1noc(C)c1S(=O)(=O)Nc1ccc2c(c1)C(=O)N([C@H](C)CO)C[C@H](C)[C@H](CN(C)Cc1ccncc1)O2	Cneo AK release 91 (no result: C2C12 statin)
Cc1noc(C)c1S(=O)(=O)Nc1ccc2c(c1)CC(=O)N([C@H](C)CO)C[C@@H](C)[C@@H](CN(C)Cc1ccc(Cl)c(Cl)c1)O2	C2C12 statin 97
Cc1noc(C)c1S(=O)(=O)Nc1ccc2c(c1)CC(=O)N([C@@H](C)CO)C[C@H](C)[C@H](CN(C)Cc1ccc(-c3ccccc3)cc1)O2	none (no result: UUG fidelity, Cneo AK release)
CO[C@@H]1CN(C)C(=O)c2cc(C#N)ccc2OC[C@H]2O[C@H](CC[C@H]2OC)CCN(C)C(=O)[C@H]1C	none (no result: UUG fidelity, miR-122 sensor)
Cc1cc(N2CCN(C(c3ccccc3)c3ccccc3)CC2)n2ncnc2n1	none

Assay outcomes: PubChem, Broad Institute
